Results on three compounds are retold here after ChEMBL document CHEMBL1135370, “Selective urokinase-type plasminogen activator (uPA) inhibitors. Part 2: (3-Substituted-5-halo-2-pyridinyl)guanidines” (Bioorg Med Chem Lett, 2002).

What is called Ki is the equilibrium dissociation constant of an inhibitor or competing ligand from its target. Low readings indicate a stronger hold on the target, high ones a looser hold on the target.

This assay has as its target Urokinase-type plasminogen activator (Homo sapiens, UniProt P00749). Nature of the assay: In vitro inhibition of human urokinase Plasminogen Activator.
On to `N=C(N)Nc1ncc(Cl)cc1C#Cc1ccccc1`, for which the Ki turned out to be 770 nM.

In turn, `N=C(N)Nc1ncc(Cl)cc1/C=C/C1CCCCC1` displayed a Ki of 730 nM.

As for `N=C(N)Nc1ncc(Cl)cc1OCC(=O)O`, the Ki was determined as 90200 nM.
